The test system of this data set is male Wistar rats. In words: Ocular inflammation induced by corneal instillation of P48/80: total MPO activity in the whole eye. The data set is classed as in vivo, rat. The note with it: six hours after instillation. The method, then: FIG. 1: Experimental protocol for example 1. Animals received two pretreatments with ML-7 [1 mg/kg by the intraperitoneal (IP) route] on the day before instillation of P48/80 (in the morning and evening) and one pretreatment two hours before instillation.
The corneal irritation model which was used has been validated in the rat (Allansmith et al., Acta Ophtalmol, 1989; 192S: 145-153) and in the rabbit (Bucolo et al., J. Ocul. Pharmacol, 1993; 9: 321-332).
Animals: Three groups of eight male Wistar rats (200-250 g) housed in individual cages were used. Animals were given a standard diet (UAR, Villemoisson, Epinay sur Orge) and drinking water ad libitum.
Inflammation induction: Inflammation was induced by instillation in the eye of 10 μl of a 10% P48/80 solution (0.1 g/ml). The control eye was instilled with 10 μl of 1×PBS.
Assay of myeloperoxidase activity: The eyes were excised and homogenized in phosphate buffer with the aid of a polytron. They were then subjected to three freeze/thaw cycles (liquid nitrogen/37° C. water bath). After centrifugation at 10,000 rpm for 15 min at 4° C., the pellets were resuspended in HTAB buffer and sonicated for 10 sec. After a second centrifugation, MPO activity was assayed from the supernatant in a reaction buffer containing O-dianisidine hydrochloride and 0.0005% hydrogen peroxide. The change in absorbance at 460 nm was measured on a spectrophotometer. […]

As for “condensate of N-methyl-p-methoxyphenethylamine and formaldehyde [P48/80]”, the “MPO activity in the eye after P48/80” value (10 μl of 10% P48/80 instilled in left eye, whole eye) was 43.1±11.3 U/g.protein. For the same substance, the “increase in MPO activity after P48/80” value (versus baseline 8.5±1.2 U/g.protein) is 407%.

These data come from US8273708B2, “Methods of treatment of ocular surface pathologies” (priority 2004, dated 2012).
